pKd: −log10 of the molar value.
Experiments:
Assay in all cases: SPR, Ab captured, 37 C
[1] = target: recombinant HLA-DQ2.5/BC Hordein peptide complex (human; barley)
[2] = target: recombinant HLA-DQ2.5/gamma 2 gliadin peptide complex (human; wheat)
[3] = target: recombinant HLA-DQ2.5/33 mer gliadin peptide complex (human; wheat)

Substance | pKd [1] | pKd [2] | pKd [3]
DQN0344H0976/L0591//DQN0385H1255/L0605-F6 (bispecific antibody) | 8.09 | 7.93 | 8.47
DQN0344H0976/L0591//DQN0385H1270/L0681-F6 (bispecific antibody) | 8.19 | 8.09 | 8.46
DQN0344H0976/L0591//DQN0385H1270/L0722-F6 (bispecific antibody) | 8.22 | 8.08 | 8.46
DQN0344H0976/L0591//DQN0385H1352/L0681-F6 (bispecific antibody) | 8.18 | 8.03 | 8.47
DQN0344H0976/L0591//DQN0385H1527/L0605-F6 (bispecific antibody) | 8.13 | 7.84 | 8.46
DQN0344H1013/L0620//DQN0385H1270/L0681-F6 (bispecific antibody) | 8.18 | 8.09 | 8.40
DQN0344H1013/L0620//DQN0385H1270/L0722-F6 (bispecific antibody) | 8.19 | 8.07 | 8.39
DQN0344H1013/L0620//DQN0385H1352/L0681-F6 (bispecific antibody) | 8.22 | 8.01 | 8.41
DQN0344H1013/L0620//DQN0385H1353/L0681-F6 (bispecific antibody) | 8.24 | 8.13 | 8.43
DQN0344H1013/L0620//DQN0385H1521/L0605-F6 (bispecific antibody) | 8.07 | 7.72 | 8.39

— patent publication US20220089743A1
